{
  "sequences": {"note": "Protein sequences, listed by entry. Tags and fused reporters are not part of them.", "UniProt P43116, whole entry": "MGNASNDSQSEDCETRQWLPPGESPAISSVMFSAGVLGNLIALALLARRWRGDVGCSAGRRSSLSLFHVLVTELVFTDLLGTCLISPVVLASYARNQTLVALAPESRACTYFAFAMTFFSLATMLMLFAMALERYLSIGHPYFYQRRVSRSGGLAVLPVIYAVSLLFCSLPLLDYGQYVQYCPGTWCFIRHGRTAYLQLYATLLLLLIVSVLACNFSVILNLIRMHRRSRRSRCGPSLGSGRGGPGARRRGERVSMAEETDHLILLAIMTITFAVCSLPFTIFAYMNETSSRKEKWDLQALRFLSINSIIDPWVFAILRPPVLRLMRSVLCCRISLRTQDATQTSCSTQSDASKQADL"},
  "source": "PubChem BioAssay AID940",
  "about": "(Emory University Molecular Libraries Screening Center, 2007)",
  "note": "This is a selection; strong and weak results do not stand in their true shares. Activity calls are given as the source filed them.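 The calls were made as follows: active = compounds whose cAMP rise, as percent of the full-agonist control response, exceeds 60; inactive = the rest.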",
  "data": [
    {"target": "Prostaglandin E2 receptor EP2 subtype (Homo sapiens) (UniProt P43116)", "test": "EP2 receptor modulators, cAMP readout, primary screen, cell-based, HTRF cAMP, PGE2 stimulation (AID 940);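 also: rat C6 glioma line stably carrying human EP2 under a CMV promoter; the protocol text gives 20 µM as final concentration; 100% = response of wells given 1 µM PGE2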", "settings": "EP2-expressing cells, cAMP HTRF FRET, PGE2 co-stimulation; at 25 µM; stronger effect = higher value", "values": [
      {"smiles": "CN(CCCl)CCCl", "induction": "inactive: 17.9%"}
    ]}
  ]
}
